Legend:
[1] = DRUGMATRIX: Glutamate, Kainate radioligand binding (ligand: [3H] Kainic acid); conditions: strain Wistar, Brain
[2] = DRUGMATRIX: Glutamate, AMPA radioligand binding (ligand: [3H] AMPA); conditions: strain Wistar, Cerebral cortex
[3] = DRUGMATRIX: Sigma2 radioligand binding (ligand: [3H] Ifenprodil); conditions: strain Wistar, Brain
[4] = DRUGMATRIX: Glutamate, NMDA, Agonism radioligand binding (ligand: [3H] CGP-39653); conditions: strain Wistar, Cerebral cortex
[5] = DRUGMATRIX: Imidazoline I2, Central radioligand binding (ligand: [3H] Idazoxan); conditions: strain Wistar, Cerebral cortex
[6] = DRUGMATRIX: Phorbol Ester radioligand binding (ligand: [3H] PDBu); conditions: strain ICR, Brain
[7] = DRUGMATRIX: Sodium/nucleoside co-transporter radioligand binding (ligand: nitrobenzylthioinosine); conditions: strain Dunkin-Hartley, Cerebral cortex
[8] = DRUGMATRIX: Serotonin (5-Hydroxytryptamine) 5-HT3 radioligand binding (ligand: [3H] GR-65630); conditions: hek293
[9] = DRUGMATRIX: Sodium Channel, Site 2 radioligand binding (ligand: [3H] Batrachotoxin); conditions: strain Wistar, Brain
[10] = DRUGMATRIX: ATPase, Na+/K+ enzyme inhibition (substrate: ATP); conditions: Heart
[11] = DRUGMATRIX: Phosphodiesterase PDE3 enzyme inhibition (substrate: [3H]cAMP + cAMP); conditions: platelet
[12] = DRUGMATRIX: GABAA, Flunitrazepam, Central radioligand binding (ligand: [3H] Flunitrazepam); conditions: strain Wistar, Brain
[13] = DRUGMATRIX: GABAA, Chloride Channel, TBOB radioligand binding (ligand: [3H] TBOB); conditions: strain Wistar, Cerebral cortex
[14] = DRUGMATRIX: Purinergic P2X radioligand binding (ligand: [3H] alpha, beta-Methylene-ATP); conditions: strain New Zealand albino, Urinary bladder
Cytochrome P450 3A4 = Cytochrome P450 3A4 (Homo sapiens, UniProt P08684); assay: DRUGMATRIX: CYP450, 3A4 enzyme inhibition (substrate: 7-Benzyloxy-4-(trifluoromethyl)-coumarin); conditions: bti-tn-5b1-4; note: in other assays of this panel Not Active means under 50% inhibition at 10 µM
[15] = DRUGMATRIX: GABAA, Muscimol, Central radioligand binding (ligand: [3H] Muscimol); conditions: strain Wistar, Brain
[16] = DRUGMATRIX: Glutamate, NMDA, Phencyclidine radioligand binding (ligand: [3H] TCP); conditions: strain Wistar, Cerebral cortex
[17] = DRUGMATRIX: beta-Lactamase enzyme inhibition (substrate: Nitrocefin)

With CN(C(=O)Cc1ccc(Cl)c(Cl)c1)C1CCC2(CCCO2)CC1N1CCCC1 (stereo not given) the IC50 [1] was “Not Active”, the Ki [1] was “Not Active” and the IC50 [2] was “Not Active”. For the same compound, the Ki [2] was “Not Active”, the IC50 [3] was “Not Active” and the Ki [3] was “Not Active”. For the same compound, the IC50 [4] was “Not Active”, the Ki [4] was “Not Active” and the IC50 [5] was “Not Active”. For the same compound, the Ki [5] was “Not Active”, the IC50 [6] was “Not Active” and the Ki [6] was “Not Active”. The IC50 [7] was “Not Active”, the Ki [7] was “Not Active” and the IC50 [8] was “Not Active”. The Ki [8] was “Not Active”, the IC50 [9] was 3.09 µM and the IC50 [10] was “Not Active”. The Ki [10] was “Not Active”, the IC50 [11] was “Not Active” and the Ki [11] was “Not Active”. For the same compound, the IC50 [12] was “Not Active”, the Ki [12] was “Not Active” and the IC50 [13] was “Not Active”. The Ki [13] was “Not Active”, the IC50 [14] was “Not Active” and the Ki [14] was “Not Active”. The IC50 (Cytochrome P450 3A4) was “Not Active”, the Ki (Cytochrome P450 3A4) was “Not Active” and the IC50 [15] was “Not Active”. The Ki [15] was “Not Active”, the IC50 [16] was “Not Active” and the Ki [16] was “Not Active”. For the same compound, the IC50 [17] was “Not Active” and the Ki [17] was “Not Active”.
